How the values were obtained:
[1] = molecular target: anti-BACE1 hIgG1 Q311A / M428L / N434Y (human); assay: SPR
[2] = molecular target: anti-BACE1 hIgG1 T18 (Q311A / M428L / N434Y) (human); assay: SPR

Amino acid sequences for entries named in this document (tags omitted). Residues count along the entry.
UniProt P55899, 24-365: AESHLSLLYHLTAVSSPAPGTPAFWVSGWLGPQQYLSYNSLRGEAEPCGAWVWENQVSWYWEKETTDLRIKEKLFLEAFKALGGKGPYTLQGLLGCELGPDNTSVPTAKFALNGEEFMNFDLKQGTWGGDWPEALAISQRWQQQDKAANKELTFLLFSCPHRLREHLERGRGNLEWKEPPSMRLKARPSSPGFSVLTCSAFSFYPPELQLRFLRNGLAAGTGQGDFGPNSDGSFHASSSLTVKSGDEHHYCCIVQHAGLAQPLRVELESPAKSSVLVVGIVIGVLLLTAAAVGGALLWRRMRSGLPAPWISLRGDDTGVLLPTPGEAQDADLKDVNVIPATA

With “human neonatal Fc receptor (hFcRn) (from UniProt P55899 24-365; P61769 21-119)” as the substance, how does the Kd [1] read?
Its Kd is 159 nM.

And the Kd [2]?
The Kd was 159 nM.

— article PMC12049489
